In paper PMC3384419:
Where two headings read alike, the source gives them in different places.

Protein sequences, listed by entry. Tags and fused reporters are not part of them. Lines headed by an entry give the natural chain unless they say otherwise; changes in a name come on top.
UniProt P17119: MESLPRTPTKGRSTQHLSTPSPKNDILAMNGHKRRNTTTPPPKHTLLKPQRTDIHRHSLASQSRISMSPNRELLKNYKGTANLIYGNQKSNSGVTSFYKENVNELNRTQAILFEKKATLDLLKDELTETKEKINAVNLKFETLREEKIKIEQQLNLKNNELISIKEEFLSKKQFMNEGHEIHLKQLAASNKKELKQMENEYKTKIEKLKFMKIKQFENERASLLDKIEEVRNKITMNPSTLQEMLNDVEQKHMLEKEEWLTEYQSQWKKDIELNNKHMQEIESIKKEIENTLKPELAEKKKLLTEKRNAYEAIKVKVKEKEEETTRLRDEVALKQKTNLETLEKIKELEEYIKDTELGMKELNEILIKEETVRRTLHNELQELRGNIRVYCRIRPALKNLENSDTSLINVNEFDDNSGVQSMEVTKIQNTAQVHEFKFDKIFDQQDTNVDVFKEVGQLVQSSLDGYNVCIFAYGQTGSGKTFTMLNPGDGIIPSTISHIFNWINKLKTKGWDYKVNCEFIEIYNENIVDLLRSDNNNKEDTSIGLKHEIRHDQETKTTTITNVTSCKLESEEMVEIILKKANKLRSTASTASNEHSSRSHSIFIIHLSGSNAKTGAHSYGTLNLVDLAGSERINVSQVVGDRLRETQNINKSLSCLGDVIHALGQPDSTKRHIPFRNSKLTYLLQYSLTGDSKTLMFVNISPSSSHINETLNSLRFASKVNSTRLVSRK

Key:
Assay in all cases: co-sedimentation
[1] = target: microtubules (tubulin polymer, αβ-tubulin)
[2] = target: microtubules (tubulin polymer, αβ-tubulin); remark: listed apart in the source
[3] = target: microtubules (tubulin polymer, αβ-tubulin); remark: listed apart in the source
[4] = target: microtubules (tubulin polymer, αβ-tubulin); remark: listed apart in the source

WT GCN4-Kar3Vik1 (from UniProt P17119 353-729; Q12045 341-647) (complex)
Kd [1]: 40 nM
stoichiometry N (αβ-tubulin per Kar3Vik1) [1]: 1
stoichiometry N (αβ-tubulin per Kar3Vik1) [2]: < 1
Kd [3]: 360 nM
stoichiometry N (αβ-tubulin per Kar3Vik1) [3]: 2
Kd [4]: 370 nM
stoichiometry N (αβ-tubulin per Kar3Vik1) [4]: 2
